## Yeast mating assay 2: variants of the scFv Ab-91

Source: Engelhart et al. 2022 (doi:10.1038/s41597-022-01779-4), MIT Lincoln Laboratory and A-Alpha Bio; data file from the FLAb repository.

Antigen: PDVDLGDISGINAS, a 14-residue peptide of the SARS-CoV-2 spike HR2 region.

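The parent was found by panning a naive human phage display library on the peptide. Library AAYL51 holds single substitutions and randomly drawn double and triple substitutions in the CDRs. AlphaSeq pools MATa yeast showing the antibodies with MATalpha yeast showing the peptide. After mating in shaken culture at 30 °C for 16 h, diploids were selected and their barcode pairs sequenced. Each replicate has its own calibration line, from reference interactions of the BCL2 family. Each pool was mated in three replicate cultures.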

Parent: Ab-91, a human scFv built as VL, a 15-residue (Gly4Ser)3 linker, VH. Only the CDRs of the heavy chain vary.
VL: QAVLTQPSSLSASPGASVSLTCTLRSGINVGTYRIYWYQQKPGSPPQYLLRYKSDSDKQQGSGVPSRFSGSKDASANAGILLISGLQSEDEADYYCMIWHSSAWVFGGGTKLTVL
VH: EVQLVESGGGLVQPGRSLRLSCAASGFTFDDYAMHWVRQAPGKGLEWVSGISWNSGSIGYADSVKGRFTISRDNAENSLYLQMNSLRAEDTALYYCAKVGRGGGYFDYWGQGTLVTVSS

Each variant is given by its three heavy chain CDRs, as the data file delimits them; those of the parent are GFTFDDYAMH, GISWNSGSIGYADSVK, VGRGGGYFDY.
This list gathers variants with a substitution at D107 (VH, numbered from residue 1).
Kd is apparent (estimated from mating counts) and averaged on the log scale over replicates with a signal. Smaller is tighter.
"no signal" marks a missing value. The strain was present, yet no cells mated with the target were sequenced in any replicate, which points to weak or no binding.
The list is sorted by this average, lowest first, undetected variants last.
Three control strains display no target. For library AAYL51, 21% of the pairings with them gave a signal, with a median of 34 µM and one signal in twenty below 1.8 µM, so weak values seen in few replicates may be background. For each scFv, signals with the empty controls are counted beside the result.
For reference, the parent read 72 nM as the reference entry and 7.5 nM as a member of this library.

- GFTFDDYAMH / GISWNSGSIGYADSVK / VGLAGGYFVY: 3.6 nM (3 of 3 replicates; controls 0 of 9)
- GFTFDDYAMH / GISWNSGSMGYADSVN / VGRGGGYFHY: 6.2 nM (3 of 3 replicates; controls 1 of 9)
- GFTFDDYAMH / GISWNSGSIGYADSVD / VGRGGGYFEY: 10 nM (3 of 3 replicates; controls 1 of 9)
- GFTFDDYAMH / GISWNSGSIGYASSVK / VGKGGGYFSY: 52 nM (3 of 3 replicates; controls 3 of 9)
- GFTFDDYAMH / GISWNSGSIGMADSVK / VGRGGGIFPY: 140 nM (3 of 3 replicates; controls 1 of 9)
- GFTFDDYAMH / GISWNSGSIGYADSVK / VGRIGGYFWY: 150 nM (3 of 3 replicates; controls 2 of 9)
- GFTFDDYAMH / GISWNSGSIGAADSVK / VGRGGGYFYY: 1.8 µM (3 of 3 replicates; controls 4 of 9)
- KFTFDLYAMH / GISWNSGSIGYADSVK / VGRGGGYFEY: 3.8 µM (3 of 3 replicates; controls 2 of 9)
- GFTFMDYAMH / GISWNWGSIGYADSVK / VGRGGGYFHY: 9.8 µM (2 of 3 replicates; controls 1 of 9)
- GFTFDDYAMH / GISFNSGSIGYADSVK / VGRGGGYFPF: 15 µM (1 of 3 replicates; controls 2 of 9)
- GFTFDDYAMH / GITWNSGSIGYADRVK / VGRGGGYFYY: 15 µM (1 of 3 replicates; controls 2 of 9)
- GFTFDDYAMH / GISWNSGSIGYADRVK / VGRGGGYFVY: 22 µM (3 of 3 replicates; controls 4 of 9)
- GFTFDDYAMH / GISWNSGSIGYADSVK / VGRGGGYFNY: 29 µM (2 of 3 replicates; controls 4 of 9)
- GFTFDDYAMH / GISANSGSIGYADSVK / VGRGGGYFRN: 50 µM (2 of 3 replicates; controls 5 of 9)
- GFTFDDYAMH / DISFNSGSIGYADSVK / VGRGGGYFKY: 52 µM (3 of 3 replicates; controls 7 of 9)
- GFTFDDYAMH / GISRNSGSIGYADSVK / VGRQGGYFVY: 56 µM (1 of 3 replicates; controls 4 of 9)
- GFTFDDYAMH / GISWNSGSIGYADSVK / VGRGGGYTRP: 64 µM (1 of 3 replicates; controls 2 of 9)
- GFTFDDYAMH / GVSWNSFSIGYADSVK / VGRGGGYFRY: 120 µM (1 of 3 replicates; controls 5 of 9)
- GFTFDDYAMH / GISWNSGSIGYAWSVK / VGRGGGNFTY: 130 µM (2 of 3 replicates; controls 3 of 9)
- GFTFDDSAMH / GISWNSGSIGYADSVK / VGRGGGYFSY: 150 µM (1 of 3 replicates; controls 4 of 9)
- GFTFDDYAMH / GISWNNGSIGYADSVK / CGRGGGYFEY: 190 µM (1 of 3 replicates; controls 0 of 9)
- AFTFDYYAMH / GISWNSGSIGYADSVK / VGRGGGYFQY: no signal (0 of 3 replicates; controls 2 of 9)
- GFTFDDYAMH / GISWNSGLIGYADSVK / VGRGGGYFYY: no signal (0 of 3 replicates; controls 1 of 9)
- GFTFDDYAMH / GISWNSGSIGYDDSVK / VGRGGGYCWY: no signal (0 of 3 replicates; controls 2 of 9)
- GFTFDDYAMH / GISWNSGSHGYADSVK / VGRGGGYFIY: no signal (0 of 3 replicates; controls 0 of 9)
- GFTFDDYAMH / GIPWNSGSIGYADSVK / VGRGGGYFSY: no signal (0 of 3 replicates; controls 0 of 9)
- GFTFDDYAMD / GISWNSVSIGYADSVK / VGRGGGYFRY: no signal (0 of 3 replicates; controls 2 of 9)
- GFTFDDYAMH / WITWNSGSIGYADSVK / VGRGGGYFHY: no signal (0 of 3 replicates; controls 0 of 9)
- GFTFDDYAEH / GISWNSGSIGYADSVK / VLRGGGYFCY: no signal (0 of 3 replicates; controls 0 of 9)
- GFTFDDYAMK / GISWNSGSIGYADCVK / VGRGGGYFSY: no signal (0 of 3 replicates; controls 0 of 9)
- GFTFDDYACH / GISWNSGSIGYADSVK / VGTGGGYFNY: no signal (0 of 3 replicates; controls 0 of 9)
- GFTFDDYHMH / GISWNSGSIGYADSVK / VGRGGGYFCY: no signal (0 of 3 replicates; controls 0 of 9)
- GFTFDDYAMH / GISWNSGSIGYADSVK / VGGGGGYFPY: no signal (0 of 3 replicates; controls 1 of 9)
- GFTFDDTAMH / WISWNSGSIGYADSVK / VGRGGGYFSY: no signal (0 of 3 replicates; controls 0 of 9)
- GFTFDDYAMH / GISWNSGSLGYADSIK / VGRGGGYFEY: no signal (0 of 3 replicates; controls 5 of 9)
- GFTFDDYAMH / GISLNSGSIGYADSVK / VGRGYGYFQY: no signal (0 of 3 replicates; controls 2 of 9)

The first 4 variants above that were never detected:

- AFTFDYYAMH / GISWNSGSIGYADSVK / VGRGGGYFQY -> no signal (0 of 3 replicates; controls 2 of 9)
- GFTFDDYAMH / GISWNSGLIGYADSVK / VGRGGGYFYY -> no signal (0 of 3 replicates; controls 1 of 9)
- GFTFDDYAMH / GISWNSGSIGYDDSVK / VGRGGGYCWY -> no signal (0 of 3 replicates; controls 2 of 9)
- GFTFDDYAMH / GISWNSGSHGYADSVK / VGRGGGYFIY -> no signal (0 of 3 replicates; controls 0 of 9)